Reference: US20100104567A1, “PHARMACEUTICAL COMPOSITION” (KYOWA HAKKO KIRIN CO., LTD., priority 2007, published 2010)

System: human pancreatic cancer MIA-Paca-2 cells
Experiment: Antitumor effect of Flt-3 inhibitor and cetuximab in mouse models transplanted with MIA-Paca-2 cells
Format: in vivo
Settings: day 24; scid mice, s.c. MIA-PaCa-2; Compound 9 50 mg/kg oral twice a day x 5 days; cetuximab 2.5 mg/head i.v. days 0, 3, 6, 9, 12
Description: C. Cetuximab alone group: 2.5 mg/head (once a day/days zero, 3, 6, 9, and 12 after the start of administration)

Cetuximab: anti-EGFR antibodies
T/C (V/V0 of group divided by V/V0 of negative control group): 0.53
